AlphaSeq binding of Ab-14 light chain variants to a spike HR2 peptide

Values reported by Li et al. 2023, doi:10.1038/s41467-023-39022-2 (FLAb copy).

Antigen: PDVDLGDISGINAS, a 14-residue peptide of the SARS-CoV-2 spike HR2 region.

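The starting antibody came from a phage panning campaign against this peptide. This is the validation round: designs drawn from the data on random variants, tested in the same kind of assay. Group labels follow the data file (Ctrl: baseline library sampled from a position-specific scoring matrix, with some repeated check sequences; Rand: our label for a block that the file lists under HC and that is probably the random mutants of the ten best first-round binders; GP: Gaussian process model; GPLM: also part of the Gaussian process libraries; HC: hill climbing; Gen: genetic algorithm; Gibbs: Gibbs sampling; a sequence that several methods proposed may carry one label only). The assay is AlphaSeq: two haploid yeast populations carry antibody and antigen on their surface. Mating (16 h, 30 °C) was followed by selection of diploids and sequencing of their barcodes. Read counts were normalised to the haploid input and turned into Kd by a linear fit to BCL2-family pairs of known affinity, for each replicate. There are six technical replicates.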

Parent: Ab-14, a human scFv built as VH, a 15-residue (Gly4Ser)3 linker, VL. Only the CDRs of the light chain vary.
VH: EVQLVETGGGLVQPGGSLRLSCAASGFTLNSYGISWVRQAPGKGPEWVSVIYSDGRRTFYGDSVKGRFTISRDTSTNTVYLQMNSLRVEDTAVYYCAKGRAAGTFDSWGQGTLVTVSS
VL: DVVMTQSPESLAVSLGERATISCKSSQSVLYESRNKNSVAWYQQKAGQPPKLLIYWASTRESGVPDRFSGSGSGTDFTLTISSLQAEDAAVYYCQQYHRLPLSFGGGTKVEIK

Positions count from residue 1 of the parent VL; Q27I puts I in place of Q.
This list holds designs with at most six substitutions.
Values are apparent Kd, the geometric mean of the replicates that gave a signal; lower means stronger binding.
"nd" marks a missing value. The strain was present, yet no cells mated with the target were sequenced in any replicate, which points to weak or no binding.
Of ten entries with the parent sequence, four were seen in most replicates (averages 2.2 nM to 240 nM), three in one and three in none, so single entries are noisy.
The authors averaged sequences with at least three values out of six and counted those with two or fewer as poor binders.
Nonspecific signal, from three strains lacking the peptide, appeared in 4% of pairings of all light chain designs, centred on 430 nM (5% of these signals below 38 nM); values are not corrected for it. For each scFv, signals with the empty controls are counted beside the result.
A sequence measured in both rounds can read differently, since the two assays cover different ranges.

The variant Q27I V29Y K36E W56E T59I S62Q [GP_HC] showed 5.3 nM (6 of 6 replicates; controls 1 of 18).
The variant S25L S26P W56N E61C [GP_Gen] showed 700 pM (6 of 6 replicates; controls 1 of 18).
The variant S26G R34E [Ctrl] showed 160 nM (4 of 6 replicates; controls 0 of 18).
The variant S28A R34M N35P K36N S62N L102V [Ctrl] showed nd (0 of 6 replicates; controls 4 of 18).
The variant S26H Q27W L30E W56G R99Q P101I [Ctrl] showed 560 pM (6 of 6 replicates; controls 0 of 18).
The variant N37K W56Y [Ctrl] showed 53 nM (4 of 6 replicates; controls 1 of 18).
The variant S25V S28E V29W W56D [GP_HC] showed 290 pM (6 of 6 replicates; controls 0 of 18).
The variant S25M R34K S38N [Ctrl] showed 570 pM (6 of 6 replicates; controls 0 of 18).
The variant S25L V29E W56N E61M S62Q [GP_Gen] showed 1.5 nM (6 of 6 replicates; controls 0 of 18).
The variant L30K Y31I W56D [GP_HC] showed 1.9 nM (6 of 6 replicates; controls 1 of 18).
The variant S25L W56N S103V [GP_Gen] showed 440 pM (6 of 6 replicates; controls 0 of 18).
The variant S25V N35D S38A W56D [GP_Gen] showed 530 pM (6 of 6 replicates; controls 1 of 18).
The variant L30T R34S [Ctrl] showed 29 nM (6 of 6 replicates; controls 1 of 18).
The variant S25V Q27T V29Y Y31L W56E [GP_HC] showed 380 pM (6 of 6 replicates; controls 0 of 18).
The variant S25I Y31G [Ctrl] showed 3.8 nM (6 of 6 replicates; controls 1 of 18).
The variant S25H S26P S28G W56G T59V [GP_HC] showed 1.4 nM (6 of 6 replicates; controls 0 of 18).
The variant Y31T W56Q [Ctrl] showed 4.5 nM (6 of 6 replicates; controls 0 of 18).
The variant W56Q Q96A L100N [Ctrl] showed 3.3 nM (6 of 6 replicates; controls 0 of 18).
The variant S33A Y97V L100H [Ctrl] showed nd (0 of 6 replicates; controls 1 of 18).
The variant S25V S38N W56D T59Q [GP_Gen] showed 290 pM (6 of 6 replicates; controls 1 of 18).
The variant S25C R34V W56D [GPLM_HC] showed 2.0 nM (6 of 6 replicates; controls 0 of 18).
The variant S25L N37W W56N S62Q [GP_Gen] showed 840 pM (6 of 6 replicates; controls 0 of 18).
The variant S25V S28L V29E L30P W56N S62H [GP_Gibbs] showed 470 pM (6 of 6 replicates; controls 1 of 18).
The variant K24R L30T W56H [Ctrl] showed 7.1 nM (6 of 6 replicates; controls 2 of 18).
The variant Q27I V29Y K36F W56E S62Q [GP_HC] showed 5.8 nM (6 of 6 replicates; controls 1 of 18).
The variant K24N V29W L30K W56G A57L S58N [Rand] showed 4.7 nM (6 of 6 replicates; controls 1 of 18).
The variant S25L S26Q V29H K36W W56N E61L [GP_Gen] showed 2.5 nM (6 of 6 replicates; controls 1 of 18).
The variant S25I S58Q E61Q Q96C [Ctrl] showed 760 nM (3 of 6 replicates; controls 0 of 18).
The variant S26G S28G W56G T59Q E61S [GP_HC] showed 9.3 nM (6 of 6 replicates; controls 2 of 18).
The variant R34D W56A L100H [Ctrl] showed 86 nM (1 of 6 replicates; controls 1 of 18).
The variant W56S E61S [Ctrl] showed 14 nM (6 of 6 replicates; controls 0 of 18).
The variant K24S S25V Q27H [Ctrl] showed 69 nM (3 of 6 replicates; controls 0 of 18).
The variant S28L E32P W56N [Ctrl] showed 5.0 nM (6 of 6 replicates; controls 0 of 18).
The variant S25G S26M Q27G V29M W56N T59Q [GP_Gibbs] showed 630 pM (6 of 6 replicates; controls 0 of 18).
The variant S25V V29W W56D T59Q [GP_Gen] showed 470 pM (6 of 6 replicates; controls 2 of 18).